The values that follow come from patent US7960408B2, “Quinolinyl and benzothiazolyl modulators” (Amgen Inc., priority 2000, dated 2011).

Protein sequences, listed by entry. Tags and fused reporters are not part of them.
UniProt P37231, whole entry: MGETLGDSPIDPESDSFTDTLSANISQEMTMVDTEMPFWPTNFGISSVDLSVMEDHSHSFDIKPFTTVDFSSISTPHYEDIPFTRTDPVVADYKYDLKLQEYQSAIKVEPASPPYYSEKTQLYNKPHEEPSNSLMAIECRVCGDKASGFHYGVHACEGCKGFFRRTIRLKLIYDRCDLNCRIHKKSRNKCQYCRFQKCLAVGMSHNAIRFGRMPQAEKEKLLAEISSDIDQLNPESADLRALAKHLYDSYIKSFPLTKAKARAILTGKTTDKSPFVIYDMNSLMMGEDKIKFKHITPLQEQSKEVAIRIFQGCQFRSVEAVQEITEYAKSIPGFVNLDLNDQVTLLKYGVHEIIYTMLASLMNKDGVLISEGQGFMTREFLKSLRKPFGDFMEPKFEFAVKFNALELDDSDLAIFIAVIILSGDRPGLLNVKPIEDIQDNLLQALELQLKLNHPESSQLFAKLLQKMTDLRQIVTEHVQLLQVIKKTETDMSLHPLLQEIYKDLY

The target in this assay is PPARγ (Homo sapiens, UniProt P37231). The assay is described as follows: PPARγ ligand binding assay utilizing [3H]-BRL 49653 as the radioligand. The following applies: read-out: PPARγ Binding IC50; concentration required to reduce by 50% the specific binding of [3H]-BRL 49653.

Regarding `O=S(=O)(Nc1cc(Cl)c(Oc2cnc3ccccc3c2)c(Cl)c1)c1ccc(Cl)cc1C(F)(F)F`, the IC50 is below 1000 nM.

The term IC50 denotes the concentration needed to halve the response being measured.
